Results published in article PMC5384220, “Highly selective inhibition of histone demethylases by de novo macrocyclic peptides” (Nature Communications, 2017).

Key:
KDM4C = biological target: T1, KDM4C (Homo sapiens, UniProt Q9H3R0); test: AlphaScreen demethylase activity assay, KDM4C; format: biochemical; conditions: read-out: IC50 KDM4C
T1 construct: KDM4C 1-366 E.coli; made in house; host or cells: E. coli
T1 sequence (Q9H3R0 1-366): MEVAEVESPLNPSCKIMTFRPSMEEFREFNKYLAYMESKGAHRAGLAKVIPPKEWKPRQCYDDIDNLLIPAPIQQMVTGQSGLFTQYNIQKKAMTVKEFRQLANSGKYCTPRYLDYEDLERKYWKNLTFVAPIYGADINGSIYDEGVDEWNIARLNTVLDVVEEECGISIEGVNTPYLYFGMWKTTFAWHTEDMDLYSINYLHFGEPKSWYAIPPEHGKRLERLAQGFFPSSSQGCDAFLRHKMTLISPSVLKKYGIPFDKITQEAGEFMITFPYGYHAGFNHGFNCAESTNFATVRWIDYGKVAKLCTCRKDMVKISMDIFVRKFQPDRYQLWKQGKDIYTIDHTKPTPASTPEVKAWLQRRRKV
Protocol: (§1) IC50 values for KDM2–6 were measured using an AlphaScreen assay as described. The appropriate KDM (5 μl) was pre-incubated with an inhibitor (0.1 μl in DMSO) or DMSO for 15 min before the addition of 5 μl mixture of biotinylated peptide substrates, 2OG, ferrous ammonium sulfate (1–10 μM final) and ascorbate (100 μM final) to initiate the demethylation reaction. The reaction was quenched with 5 μl of 30 mM EDTA at predetermined reaction times for each enzyme (initial rate). Demethylated product was detected by addition of 5 μl of AlphaScreen donor and acceptor beads (AlphaScreen General IgG Detection Kit, 0.02 mg ml^−1 final each) pre-incubated with antibody. The plates were read after 1 h incubation in a BMG Labtech Pherastar FS plate reader. Data were normalized to a no enzyme control and IC50 values were calculated using nonlinear regression curve fits using GraphPad Prism. Assay buffer (50 mM HEPES pH 7.5, BSA (0.1% w/v) and Tween-20 (0.01% v/v)) was used throughout, except for dilution of stock ferrous ammonium sulfate solutions where water was used. The enzyme, substrate and antibody concentrations used are described in Supplementary Table 3. A fluorescence-based LSD1 inhibitor screening assay kit (Cayman, 700120) was used for KDM1/LSD1 assay. Assays for prolyl hydroxylase domain 2 and factor inhibiting HIF using matrix-assisted laser desorption/ionization–time of flight MS were performed as previously described. Prism 5.0 (GraphPad) was used to generate and to fit dose–response curves. IC50 values were determined by plotting percentage inhibition versus compound concentration relative to positive (vehicle) and negative (no enzyme) controls, using normalized dose–response (variable slope) fit. The reported values are the mean of multiple experiments (n≥3). The formaldehyde dehydrogenase coupled KDM assay was used to determine the mode of inhibition, using 0.5 μM His-KDM4A1–359. Prism 5.0 (GraphPad) was used to fit in mix-mode inhibition, to determine the kinetic parameters. Binding constants for CPs and H3(1–15)K9me3 were measured using biolayer interferometry (OctetRed 384, ForteBio) in buffer (50 mM HEPES (pH 7.5), 150 mM NaCl, 10 μM ammonium iron(II) sulphate). His-KDM4A1–359-Bio (70 nM) was immobilized onto super streptavidin biosensor and subjected to different peptide concentrations in buffer. Data analysis was performed using ForteBio Data Aalysis (v6.4).
(§2) Construct Expression [E] / nM [2OG] / µM [Fe(II)] / µM Peptide / nM Peptide sequence Antibody Source […]
(§3) Supplementary Table 3. AlphaScreen assay parameters for 2OG oxygenases used for this study. The table was dapted from 10. Assays were performed at 2OG concentration near the 2OG Km values determined experimentally.11 All enzymes were expressed and purified as described.10-12

KDM4A = biological target: T2, KDM4A (Homo sapiens, UniProt O75164); test: AlphaScreen demethylase activity assay, KDM4A; format: biochemical
T2 construct: KDM4A 1-359 E.coli; Hexa-His (N); made in house; host or cells: E. coli
T2 sequence (O75164 1-359): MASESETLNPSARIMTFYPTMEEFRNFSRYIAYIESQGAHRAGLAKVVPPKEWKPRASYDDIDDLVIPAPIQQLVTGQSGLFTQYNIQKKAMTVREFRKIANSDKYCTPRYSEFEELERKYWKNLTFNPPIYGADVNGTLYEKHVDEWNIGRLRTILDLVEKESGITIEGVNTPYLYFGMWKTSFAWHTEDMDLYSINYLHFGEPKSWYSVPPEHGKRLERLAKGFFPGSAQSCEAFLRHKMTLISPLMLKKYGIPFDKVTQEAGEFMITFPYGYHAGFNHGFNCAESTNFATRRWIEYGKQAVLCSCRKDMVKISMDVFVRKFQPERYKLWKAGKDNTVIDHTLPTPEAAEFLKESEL
Protocol: as §1, §2, §3

FLAG-KDM4A in HeLa cells = conditions: HeLa overexpressing FLAG-KDM4A, 3 µM
[1] = read-out: IC50 KDM4A, KDM4A 1-359

Row | Substance | IC50 (KDM4C) [µM] | IC50 (KDM4A; [1]) [µM] | further results
1 | DYVYNTASGWRWYTC [R6A] | 3.9 | 2.7 | IC50 (KDM4A; read-out: IC50 KDM4A, KDM4A 1-359, listed as peptide 4): > 2.4 µM
2 | DYVYNTRSGWRWYTC-BRRRRRRRRR [CP2(polyR)] | 0.0008 | 0.0018 | Viability of transfected cells (FLAG-KDM4A in HeLa cells): No viable transfected cells; Concentration at which cytotoxicity with reduction in cell numbers was observed (HeLa cells): > 3000 nM
3 | DYVYNTRSDAWRWYTC [G8^DA] | 0.029 | 0.01 | –
4 | DYVYNTRSGWRWY(meT)C [T13meT] | 0.053 | 0.048 | –
5 | DYVYNTFSGWRWYZC [R6F] | > 10 | 5.5 | IC50 (KDM4A; read-out: IC50 KDM4A, KDM4A 1-359, listed as peptide 5): > 2.4 µM
6 | DYVYNTRSGWRWYT(meC) [C14meC] | 0.023 | 0.009 | –
7 | DYVYNTRSGWRWYZC [T13Z] | 0.06 | 0.11 | –
8 | DYVYNT(Cit)SGWRWYZC [R6Cit] | 0.695 | 0.283 | IC50 (KDM4A; read-out: IC50 KDM4A, KDM4A 1-359, listed as peptide 7): > 2.4 µM
9 | DY(meV)YNTRSGWRWYTC [V2meV] | 0.06 | 0.037 | –
10 | (meDY)VYNTRSGWRWYTC [^DY1me^DY] | 0.192 | 0.264 | –
11 | DYVYNTRSGWRWYTC [Linear CP2] | 0.144 | 0.172 | –
12 | DYVYNT(KAc)SGWRWYZC [R6AcK] | 5.9 | 2.4 | IC50 (KDM4A; read-out: IC50 KDM4A, KDM4A 1-359, listed as peptide 6): > 2.4 µM
13 | LYVYNTRSGWRWYTC [^DY1^LY] | 0.078 | 0.066 | –
14 | DYVYNTKSGWRWYZC [R6K] | 0.112 | 0.024 | –

Where two headings read alike, the source gives them in different places.
